From PubChem BioAssay AID652106 (National Center for Advancing Translational Sciences (NCATS), 2013)
Only a part is listed here, and it is no random draw. Some tests of the compounds listed are not included; inactive here does not mean inactive elsewhere. Calls of active or inactive are those of the source. The call rests on the fitted dose curve; in most records, active means well fitted activation curve with a large enough effect; inconclusive means small, poorly fitted or top-dose-only effect; inactive means no such curve, though single readings can be large or run the other way.

Assay: qHTS of alpha-syn Inhibitors; further: % of control where 0% means no effect; nearly all actives have a fitted effect of over 65% in size
Details: Yeast expressing alpha-synuclein, BacTiter-Glo, 24 h; at 46.1 µM (top of the series)
Description: The goal of this project is to identify new chemical probes capable of reversing the toxicity associated with the Parkinson disease-related protein, alpha-synuclein. Compounds will be selected on their ability to restore growth in yeast cells expressing toxic levels of alpha-synuclein. These compounds will provide a complementary approach to deciphering the tangled mechanisms of toxicity and protection that we have uncovered through genome-wide genetic screens and are beginning to uncover in a large-scale proteomics analysis with mass spectroscopy. To this end, a miniaturized assay was developed to be screened against the Molecular Libraries Small Molecule Repository (MLSMR) to discover alpha-synuclein inhibitors. Please note that in the set-up this yeast-based assay compounds that inhibit as alpha-syn, have a read-out as activators. NIH Chemical Genomics Center [NCGC] NIH Molecular Libraries Probe Centers Network [MLPCN] MLPCN Grant: NS060957 Assay Submitter (PI): Susan Lindquist, Whitehead Institute/MIT
Dispense 2.5 microL yeast galactose medium per 1536-well plate, pin compound, dispense 2.5 microL alpha-synuclein expressing yeast in galactose medium at OD600=0.02 (pregrown in raffinose medium to mid-log phase) per well, incubate for 24 hr at 30 deg C, and cell growth will be measured using 5 microL of Bactiter/Glo reagent to entire plate and read using Luminescence Protocol in ViewLux.

Structure (SMILES)	growth rescue (activation)
COc1cccc(C(=O)NCC2(N3CCOCC3)CCCCC2)c1	inactive: -1.42%
O=C(OC1CN2CCC1CC2)C(CO)(c1ccccc1)c1ccccc1 (configuration not stated)	inactive: -0.578%
O=C(OCCN1CCCC1)C(O)(c1ccccc1)c1ccccc1	inactive: -6.8%
CC(C)Oc1ccc(C(=O)NCC2(N(C)C)CCCCC2)cc1	inactive: 0.412%
CN(C)c1cccc(C(=O)NCC2(N(C)C)CCCCC2)c1	inactive: -2.51%
C=C(C)C#CC(O)(C(=O)OC1CCN(C)CC1)c1ccccc1 (configuration not stated)	inactive: 2.09%
COc1ccc(Br)c(C(=O)NCC2(N3CCCCC3)CCCCC2)c1	inactive: 0.288%
COc1cc(C(=O)NCC2(N(C)C)CCCCC2)c([N+](=O)[O-])cc1OC	inactive: 0.119%
O=C(CBr)c1ccc(Cl)cc1	inactive: 1.86%
CN(C)C1(CNC(=O)c2ccc(Br)cc2)CCCCC1	inactive: -6.94%
O=C(NCC1(N2CCCCC2)CCCCC1)c1cccc(Cl)c1	inactive: 1.46%
COc1ccc(Cl)cc1C(=O)NCC1(N(C)C)CCCCC1	inactive: -2.46%
COc1cccc(C(=O)NCC2(N3CCCCC3)CCCCC2)c1	inactive: -5.83%
CCCCOc1ccccc1C(=O)NCC1(N(C)C)CCCCC1	inactive: 1.44%
CN(C)c1ccc(C(=O)NCC2(N(C)C)CCCCC2)cc1	inactive: -3.65%
CN(C)C1CCCC1OC(=O)C(O)(c1ccccc1)c1ccccc1 (configuration not stated)	inactive: 0.832%

Structure (SMILES)	growth rescue (activation)
Cc1ccccc1C(=O)NCC1(N2CCCCC2)CCCCC1	inactive: 5.46%
CN(C)C1(CNC(=O)c2ccccc2[N+](=O)[O-])CCCCC1	inactive: 22.2%
CCOc1cccc(C(=O)NCC2(N(C)C)CCCCC2)c1	inactive: -4.15%
COc1ccc(C(=O)NCC2(N(C)C)CCCCC2)cc1	inactive: 2.88%
O=C(NCC1(N2CCCCC2)CCCCC1)c1cccc(Br)c1	inactive: 1.45%
CCN1CCCC(OC(=O)C2(O)c3ccccc3C=Cc3ccccc32)C1 (configuration not stated)	inactive: 0.159%
Cc1cc(C(=O)NCC2(N3CCCCC3)CCCCC2)ccc1[N+](=O)[O-]	inactive: -2.02%
O=C(NCC1(N2CCCCC2)CCCCC1)c1cc(F)c(F)cc1Cl	inactive: 1.12%
C=CCN1CCN(CCOC(=O)C(O)(c2ccccc2)c2ccccc2)CC1	inactive: -1.45%
CN1[C@@H]2CC[C@H]1CC(OC(=O)C(O)(c1ccccc1)c1ccccc1)C2 (some centres not stated)	inactive: -1.07%
O=C(NCC1(N2CCCCC2)CCCCC1)c1cc([N+](=O)[O-])ccc1Cl	inactive: 5.03%
Cc1ccc(C(=O)NCC2(N3CCCCC3)CCCCC2)cc1	inactive: -0.357%
CN(C)C1(CNC(=O)c2ccccc2F)CCCCC1	inactive: 1.85%
COc1cc(SC)ccc1C(=O)NCC1(N(C)C)CCCCC1	inactive: 0.374%
CCN(CC)CC(C)C(C)OC(=O)C(O)(c1ccccc1)c1ccccc1 (configuration not stated)	inactive: -6.68%
CC(C)N1C(=O)CC2(CCN(CCOC(=O)C(O)(c3ccccc3)c3ccccc3)CC2)C1=O	inactive: 2.92%
